According to patent US20100247533A1, “TREATMENT WITH A HUMANIZED ANTI-EGFR IgG1 ANTIBODY AND IRINOTECAN” (priority 2009, published 2010):

System: A549 lung adenocarcinoma xenografts
Test: Animal survival study in vivo, A549 lung adenocarcinoma xenograft model
Set-up: species or system SCID beige mice
Description: Partially fucosylated GlycArt-mAb was provided as stock solution (c=11.3 mg/ml), in a buffer containing histidine, trehalose and polysorbate 20. The antibody stock solution was appropriately diluted in PBS prior to injection.
The anti-EGFR antibody cetuximab (Erbitux®) was purchased as clinical formulation (5 mg/ml) from Merck Pharma GmbH, Darmstadt, Germany. The antibody concentration was adjusted by dilution of the reconstituted stock solution prior to injection.
Irinotecan/CPT-11 (Campto®) was purchased as clinical formulation (20 mg/ml) from Pfizer Pharma GmbH, Karlsruhe, Germany. The antibody concentration was adjusted by dilution of the reconstituted stock solution prior to injection.
A549 human Non Small Cell Lung Cancer (NSCLC) cells were obtained from ATCC. The tumor cell line was routinely cultured in RPMI medium (PAA Laboratories, Austria) supplemented with 10% fetal bovine serum (PAA Laboratories, Austria) and 2 mM L-glutamine, at 37° C. in a water-saturated atmosphere at 5% CO2. […]
The in vivo anti-tumor efficacy of the combination of GlycArt-mAb with irinotecan, compared to the combination of the commercially available anti-EGFR antibody cetuximab with irinotecan, and both anti-EGFR antibodies and irinotecan as single agents was analyzed in the A549 lung adenocarcinoma xenograft model. […] The data was statistically analyzed by log rank test.

cetuximab
p (log rank test), survival compared to vehicle control (antibodies 25 mg/kg i.p. every seven days, irinotecan 20 mg/kg i.p. four times, single agents or combinations): 0.0031 | animal survival compared to vehicle control (single agents, antibodies 25 mg/kg i.p. every seven days (day 7-98), irinotecan 20 mg/kg i.p. day 7, 10, 14, 17, A549 cells injected i.v.): significantly prolonged animal survival
